Measurements published in patent publication US20040082635A1, “Fused cyclic compounds and medicinal use thereof” (priority 2001, published 2004).
Structures can show the parent of a compound that is named as a salt.

Amino acid sequences for entries named in this document (tags omitted). Residues count along the entry.
UniProt P26663, 2420-3010: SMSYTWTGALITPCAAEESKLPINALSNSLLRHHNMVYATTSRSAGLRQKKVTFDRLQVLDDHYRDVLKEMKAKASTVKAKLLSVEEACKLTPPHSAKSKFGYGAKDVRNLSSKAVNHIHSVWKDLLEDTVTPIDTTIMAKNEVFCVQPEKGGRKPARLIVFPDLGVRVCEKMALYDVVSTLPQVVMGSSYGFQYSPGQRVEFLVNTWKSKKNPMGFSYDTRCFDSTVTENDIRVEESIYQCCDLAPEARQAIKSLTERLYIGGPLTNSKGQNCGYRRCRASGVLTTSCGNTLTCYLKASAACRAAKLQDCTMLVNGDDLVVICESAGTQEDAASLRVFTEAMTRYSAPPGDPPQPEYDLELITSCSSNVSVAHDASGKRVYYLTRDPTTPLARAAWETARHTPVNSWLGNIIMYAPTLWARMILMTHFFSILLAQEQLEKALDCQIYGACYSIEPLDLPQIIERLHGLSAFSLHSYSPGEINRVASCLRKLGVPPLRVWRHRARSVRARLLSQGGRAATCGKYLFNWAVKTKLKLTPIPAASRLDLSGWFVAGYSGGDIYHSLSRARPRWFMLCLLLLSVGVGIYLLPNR

Target: T1, HCV polymerase (Hepatitis C virus genotype 1b, UniProt P26663)
T1 construct: a region encoding NS5B (591 amino acids; J Virol 1991 Mar, 65(3), 1105-13) was amplified by PCR; 6 His (N); made in house; host or cells: Escherichia coli
Test: biochemical
Settings: HCV polymerase inhibitory activity IC50

Row | SMILES | IC50
1 | NC(=O)c1ccc(-c2ccc(Cl)cc2)c(COc2ccc(-c3nc4cc(C(=O)O)ccc4n3C3CCCCC3)cc2)c1 [Example 262, 2-{4-[3-carbamoyl-6-(4-chlorophenyl)benzyloxy]phenyl}-1-cyclohexylbenzimidazole-5-carboxylic acid hydrochloride] | 13 nM
2 | CNC(=O)c1ccc(-c2ccc(Cl)cc2)c(COc2ccc(-c3nc4cc(C(=O)O)ccc4n3C3CCCCC3)c(F)c2)c1 [Example 268, 2-{4-[2-(4-chlorophenyl)-5-methylcarbamoylbenzyloxy]-2-fluorophenyl}-1-cyclohexylbenzimidazole-5-carboxylic acid hydrochloride] | 12 nM

Same assay, conditions: read-out: HCV polymerase inhibitory activity IC50

Row | SMILES | IC50
3 | O=C(O)c1ccc2c(c1)nc(-c1ccc(OCc3cc(Cl)ccc3-c3ccc(Cl)cc3)cc1)n2C1CCCCC1 [Example 6] | 34 nM
4 | Cc1ccc(COc2ccc(-c3nc4cc(C(=O)O)ccc4n3C3CCCC3)cc2)cc1 [Example 50, 1-cyclopentyl-2-[4-(4-methylbenzyloxy)phenyl]benzimidazole-5-carboxylic acid] | 540 nM
5 | O=C(O)c1ccc2c(c1)nc(-c1ccc(OCc3cc(Cl)cc(Cl)c3)cc1)n2C1CCCC1 [Example 67, 1-cyclopentyl-2-[4-(3,5-dichlorobenzyloxy)phenyl]benzimidazole-5-carboxylic acid] | 260 nM
6 | O=C(O)c1ccc2c(c1)nc(-c1ccc(OCc3ccccc3)cc1)n2C1CCCCC1 [Example 89, 2-(4-benzyloxyphenyl)-1-cyclohexylbenzimidazole-5-carboxylic acid] | 340 nM
7 | O=C(O)c1ccc2c(c1)nc(-c1ccc(OCCC(c3ccccc3)c3ccccc3)cc1)n2C1CCCCC1 [Example 93, 1-cyclohexyl-2-[4-(3,3-diphenylpropyloxy)phenyl]benzimidazole-5-carboxylic acid] | 160 nM
8 | O=C(O)c1ccc2c(c1)nc(-c1ccc(OCc3cc(Cl)ccc3-c3ccccc3)cc1)n2C1CCCCC1 [Example 94, 2-[4-(3-chloro-6-phenylbenzyloxy)phenyl]-1-cyclohexylbenzimidazole-5-carboxylic acid] | 84 nM
9 | O=C(O)c1ccc2c(c1)nc(-c1ccc(OCCCc3ccccc3)cc1)n2C1CCCCC1 [Example 97, 1-cyclohexyl-2-[4-(3-phenylpropyloxy)phenyl]benzimidazole-5-carboxylic acid] | 160 nM
10 | COc1ccccc1CCOc1ccc(-c2nc3cc(C(=O)O)ccc3n2C2CCCCC2)cc1 [Example 120, 1-cyclohexyl-2-{4-[2-(2-methoxyphenyl)ethoxy]phenyl}-benzimidazole-5-carboxylic acid] | 160 nM
11 | O=C(N[C@@H](COc1ccc(-c2nc3cc(C(=O)O)ccc3n2C2CCCCC2)cc1)c1ccccc1)OCc1ccccc1 [Example 130, 2-{4-[(2R)-2-benzyloxycarbonylamino-2-phenylethoxy]phenyl}-1-cyclohexylbenzimidazole-5-carboxylic acid] | 160 nM
12 | Cc1ccc(-c2ccc(Cl)cc2COc2ccc(-c3nc4cc(C(=O)O)ccc4n3C3CCCCC3)cc2)cc1 [Example 142, 2-{4-[3-chloro-6-(4-methylphenyl)benzyloxy]phenyl}-1-cyclohexylbenzimidazole-5-carboxylic acid] | 55 nM
13 | COc1ccc(-c2ccc(Cl)cc2COc2ccc(-c3nc4cc(C(=O)O)ccc4n3C3CCCCC3)cc2)cc1 [Example 143, 2-{4-[3-chloro-6-(4-methoxyphenyl)benzyloxy]phenyl}-1-cyclohexylbenzimidazole-5-carboxylic acid] | 53 nM
14 | COc1cc(-c2ccc(Cl)cc2COc2ccc(-c3nc4cc(C(=O)O)ccc4n3C3CCCCC3)cc2)cc(OC)c1OC [Example 157, 2-{4-[3-chloro-6-(3,4,5-trimethoxyphenyl)benzyloxy]phenyl}-1-cyclohexylbenzimidazole-5-carboxylic acid] | 160 nM
15 | O=C(O)c1ccc2c(c1)nc(-c1ccc(OCCc3ccccc3-c3ccccc3)cc1)n2C1CCCCC1 [Example 158, 2-{4-[2-(2-biphenylyl)ethoxy]phenyl}-1-cyclohexylbenzimidazole-5-carboxylic acid] | 110 nM
16 | C=C(C)CCOc1cccc(Oc2ccc(-c3nc4cc(C(=O)O)ccc4n3C3CCCCC3)cc2)c1 [Example 164, 1-cyclohexyl-2-{4-[3-(3-methyl-3-butenyloxy)phenoxy]phenyl}-benzimidazole-5-carboxylic acid] | 160 nM
17 | CC(=O)Nc1ccc(-c2ccc(Cl)cc2)c(COc2ccc(-c3nc4cc(C(=O)O)ccc4n3C3CCCCC3)cc2)c1 [Example 183, 2-{4-[3-acetylamino-6-(4-chlorophenyl)benzyloxy]phenyl}-1-cyclohexylbenzimidazole-5-carboxylic acid] | 17 nM
18 | NC(=O)c1ccc(-c2ccc(Cl)cc2)c(COc2ccc(-c3nc4cc(C(=O)O)ccc4n3C3CCCCC3)cc2)c1 [Example 190, 2-{4-[3-carbamoyl-6-(4-chlorophenyl)benzyloxy]phenyl}-1-cyclohexylbenzimidazole-5-carboxylic acid] | 20 nM
19 | O=C(O)c1ccc2c(c1)nc(-c1ccc(OC(c3cccc(F)c3)c3cccc(F)c3)cc1)n2C1CCCCC1 [Example 207, 2-{4-[bis(3-fluorophenyl)methoxy]phenyl}-1-cyclohexylbenzimidazole-5-carboxylic acid] | 81 nM
20 | Cc1ncc(COc2ccc(-c3nc4cc(C(=O)O)ccc4n3C3CCCCC3)cc2)c(-c2ccc(Cl)cc2)n1 [Example 233, 2-{4-[{4-(4-chlorophenyl)-2-methyl-5-pyrimidinyl}methoxy]phenyl}-1-cyclohexylbenzimidazole-5-carboxylic acid hydrochloride] | 28 nM
21 | NS(=O)(=O)c1ccc(-c2ccc(Cl)cc2)c(COc2ccc(-c3nc4cc(C(=O)O)ccc4n3C3CCCCC3)cc2)c1 [Example 250, 2-{4-[2-(4-chlorophenyl)-5-sulfamoylbenzyloxy]phenyl}-1-cyclohexylbenzimidazole-5-carboxylic acid trifluoroacetate] | 18 nM
22 | CC(C)NC(=O)c1ccc(-c2ccc(Cl)cc2)c(COc2ccc(-c3nc4cc(C(=O)O)ccc4n3C3CCCCC3)c(F)c2)c1 [Example 285, 2-{4-[2-(4-chlorophenyl)-5-isopropylcarbamoylbenzyloxy]-2-fluorophenyl}-1-cyclohexylbenzimidazole-5-carboxylic acid] | 12 nM
23 | COc1ccc(-c2ccc(Cl)cc2)c(CSc2ccc(-c3nc4cc(C(=O)O)ccc4n3C3CCCCC3)cc2)c1 [Example 311, 2-{4-[2-(4-chlorophenyl)-5-methoxybenzylthio]phenyl}-1-cyclohexylbenzimidazole-5-carboxylic acid hydrochloride] | 160 nM
24 | O=C(O)c1ccc2c(c1)nc(-c1ccc(OC(c3ccccc3)c3cccnc3)cc1F)n2C1CCCCC1 (centres unmarked) [Example 313, 2-[4-(phenyl-3-pyridylmethoxy)-2-fluorophenyl]-1-cyclohexylbenzimidazole-5-carboxylic acid] | 25 nM
25 | N#Cc1ccc(-c2ccc(Cl)cc2COc2ccc(-c3nc4cc(C(=O)O)ccc4n3C3CCCCC3)cc2)cc1 [Example 368, 2-{4-[5-chloro-2-(4-cyanophenyl)benzyloxy]phenyl}-1-cyclohexylbenzimidazole-5-carboxylic acid hydrochloride] | 24 nM
26 | CCN(C(C)=O)c1ccc(-c2ccc(Cl)cc2)c(COc2ccc(-c3nc4cc(C(=O)O)ccc4n3C3CCCCC3)c(F)c2)c1 [Example 459, 2-[4-{2-(4-chlorophenyl)-5-(N-acetyl-N-ethylamino)benzyloxy}-2-fluorophenyl]-1-cyclohexylbenzimidazole-5-carboxylic acid hydrochloride] | 14 nM
